Data: PMC4926433, “Isoquercitrin Esters with Mono- or Dicarboxylic Acids: Enzymatic Preparation and Properties” (International Journal of Molecular Sciences, 2016)

Assay: Partition coefficient (log P) in octan-1-ol/phosphate buffer pH 7.4
Conditions: octan-1-ol/phosphate buffer pH 7.4, 25 °C
Procedure: The hydrophobicity of the prepared compounds was determined by the measurement of partition coefficient P in a mixture of two immiscible phases—octan-1-ol and 6.6 mM phosphate buffer pH 7.4 to simulate physiological conditions. Before the use, octan-1-ol was stirred with the buffer for 16 h at 25 °C to achieve saturation of both phases, which were then separated.
Then, 150 µL of the stock solutions were mixed with 150 µL of the respective immiscible phase in microcentrifuge tubes (1.5 mL) and stirred (750 rpm) for 2 h at 25 °C in triplicates. Phases were separated and the solute concentration in each phase was determined in 96-well microtitration plates using Sunrise™ spectrophotometer (Schoeller Instruments, Prague, Czech Republic) at 400 nm. Log P was calculated as follows: log Poct/buffer = log([A]octan-1-ol/[A]buffer).

## C[C@@H]1O[C@@H](OC[C@H]2O[C@@H](Oc3c(-c4ccc(O)c(O)c4)oc4cc(O)cc(O)c4c3=O)[C@H](O)[C@@H](O)[C@@H]2O)[C@H](O)[C@H](O)[C@H]1O [Rutin, quercetin-3-O-[α-L-rhamnopyranosyl-(1→6)-β-D-glucopyranose], reference compound]
  log P: −0.39
